# Patent US20200338203A1 (Bicycle, published 2020)
# Chains of the proteins cited; added tags and fusions are not shown. Residues count along the entry.
# UniProt P29317, 24-537: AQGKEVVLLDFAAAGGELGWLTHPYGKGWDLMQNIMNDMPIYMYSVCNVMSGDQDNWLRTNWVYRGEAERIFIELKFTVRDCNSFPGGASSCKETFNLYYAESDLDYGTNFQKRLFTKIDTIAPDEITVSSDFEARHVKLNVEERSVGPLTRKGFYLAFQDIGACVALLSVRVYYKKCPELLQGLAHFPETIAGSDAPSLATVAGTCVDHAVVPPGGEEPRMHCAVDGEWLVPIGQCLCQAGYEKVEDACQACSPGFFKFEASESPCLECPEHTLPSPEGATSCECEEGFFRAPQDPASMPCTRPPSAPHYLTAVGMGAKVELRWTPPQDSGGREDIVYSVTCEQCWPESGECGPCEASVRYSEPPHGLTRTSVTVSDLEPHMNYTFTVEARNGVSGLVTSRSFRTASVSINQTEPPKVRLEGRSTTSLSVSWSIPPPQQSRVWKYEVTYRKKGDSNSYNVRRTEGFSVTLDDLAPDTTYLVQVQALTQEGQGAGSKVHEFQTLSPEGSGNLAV
# Molecular target: T1, Human EphA2 (Ecto) (Human, UniProt P29317 24-537)
# T1 construct: extracellular domain
# Assay: FP competition; competitor Compound 66
# Protocol: (§1) Peptides without a fluorescent tag were tested in competition with a peptide with a fluorescent tag and a known Kd (Table 2). Peptides were diluted to an appropriate concentration in assay buffer as described in the direct binding assay with a maximum of 5% DMSO, then serially diluted 1 in 2. Five μL of diluted peptide was added to the plate followed by 10 μL of human or mouse EphA2 (Table 1) at a fixed concentration which was dependent on the fluorescent peptide used (Table 2), then 10 μL fluorescent peptide added. Measurements were conducted as for the direct binding assay, however the gain was determined prior to the first measurement.
row,Binder,Ki
1,ACMNDWLCQLGWKCA (TBMB on the 3 Cys) [Compound 28],113 nM
2,ACMNDWLCELGWTCA (TBMB on the 3 Cys) [Compound 29],134 nM
3,ACTQNDWLCSLGWTCA (TBMB on the 3 Cys) [Compound 31],152 nM
4,ACRVSPEYCPFGPTWCA (TBMB on the 3 Cys) [Compound 35],43.2 nM
5,ACRVSPEYCPFGPLWCA (TBMB on the 3 Cys) [Compound 39],32.1 nM
6,ACRVSPEYCPFGPDWCA (TBMB on the 3 Cys) [Compound 40],55.4 nM
7,ACPWGPAWCPVNGARCA (TBMB on the 3 Cys) [Compound 43],430 nM
8,ACPWGPAWCPVNRPGCA (TBMB on the 3 Cys) [Compound 44],191 nM
9,ACPWGPNWCPVNRPGCA (TBMB on the 3 Cys) [Compound 47],78.3 nM
10,ACPWGPAWCPVRNPCA (TBMB on the 3 Cys) [Compound 48],284 nM
11,ACPWGPAWCPVSRVCA (TBMB on the 3 Cys) [Compound 49],428 nM
12,ACPWGPAWCPVRSCA (TBMB on the 3 Cys) [Compound 50],314 nM
13,ACPWGPAWCPVKPTCA (TBMB on the 3 Cys) [Compound 51],318 nM
14,ADHACPWGPFWCPVNRPGCA (TBMB on the 3 Cys) [Compound 56],5.87 nM
15,ANDVTCPWGPFWCPVNRPGCA (TBMB on the 3 Cys) [Compound 61],7.3 nM
16,ACVPQGIWCALRYEPCA (TBMB on the 3 Cys) [Compound 65],293 nM

# Molecular target: T1, Human EphA2 (Ecto)
# Assay: FP competition; competitor Compound 12
# Protocol: as §1
row,Binder,Ki
1,ACPWGPAWCPVNRPGCA (TBMB on the 3 Cys) [Compound 44],128 nM
2,ACVPQGIWCALRYEPCA (TBMB on the 3 Cys) [Compound 65],229 nM

# Molecular target: T1, Human EphA2 (Ecto)
# Assay: FP competition; competitor Compound 18
# Protocol: as §1
row,Binder,Ki
1,ADHACPWGPFWCPVNRPGCA (TBMB on the 3 Cys) [Compound 56],14.4 nM
2,ANDVTCPWGPFWCPVNRPGCA (TBMB on the 3 Cys) [Compound 61],2.93 nM

# Molecular target: T1, Human EphA2 (Ecto)
# Assay: FP competition; competitor Compound 1
# Protocol: as §1
row,Binder,Ki
1,ACPWGPAWCPVNRPGCA (TBMB on the 3 Cys) [Compound 44],164 nM
